# Apparent affinities of Ab-14 variants for a coronavirus HR2 peptide

Values reported by Engelhart et al. 2022, doi:10.1038/s41597-022-01779-4 (FLAb copy).

Target: peptide PDVDLGDISGINAS, taken from heptad repeat 2 (HR2) of SARS-CoV-2 spike.

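AAYL50 was designed without a model: most single CDR substitutions and a random sample of double and triple ones. The scFvs were displayed on barcoded MATa yeast, the peptide on MATalpha yeast. Binding brings cells together so that they mate, and sequencing counts the barcode pairs among the diploids. Read counts were normalised to the haploid input and turned into Kd by a linear fit to BCL2-family pairs of known affinity, for each replicate. There are three technical replicates.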

Parent: Ab-14, a human scFv built as VH, three GGGGS repeats, VL. Only the CDRs of the light chain vary.
VH: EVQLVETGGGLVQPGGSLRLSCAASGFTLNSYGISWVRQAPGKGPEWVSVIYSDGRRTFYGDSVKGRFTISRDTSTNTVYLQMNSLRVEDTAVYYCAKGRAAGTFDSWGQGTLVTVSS
VL: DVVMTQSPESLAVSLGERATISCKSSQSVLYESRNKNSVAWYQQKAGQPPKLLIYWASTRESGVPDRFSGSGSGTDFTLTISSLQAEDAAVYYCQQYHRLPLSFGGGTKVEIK

The parent's light chain CDRs are KSSQSVLYESRNKNSVA, WASTRES, QQYHRLPLS; each variant's own CDRs replace them letter for letter.
All variants listed here change R60 of the VL, counted from its first residue.
The read-out is the apparent dissociation constant on a log10 scale (nM): the lower, the stronger.
The mean shown is taken over the replicates in which the pair was detected.
"not detected" means that the variant was in the library but no mating with the target was seen in any replicate; the authors take this as a sign of poor binding, and no number exists.

CDR-L1,CDR-L2,CDR-L3,"mean, log10 nM",replicates with signal
KSSQSVLYESRNKNSHA,WASTEES,QQYHRLPLS,3.68,1 of 3
KSSQSVLYESRNKNSVA,WAWTIES,QQYHRAPLS,3.51,1 of 3
KSSQSVLYESRNKNSVD,WASTAES,QQYHPLPLS,3.86,1 of 3
KSSQSVLYESRNKNSVA,WASTLET,QQYHRLPLS,2.80,3 of 3
KSSQSVLYESRNKNSVA,WASTEES,RAYHRLPLS,2.86,1 of 3
DSSQSVLYESRNKNSVA,WASTSES,QQYHRLPLS,not detected,0 of 3
KSSQSVLYMSRNKNSVA,WASTHES,QQYHRNPLS,not detected,0 of 3
KSSQSVLYESRNKNSVA,WESTLES,QQYHRLILS,2.55,3 of 3
KSSQSGLYESRNKNSVA,WASTKES,QQYHLLPLS,3.01,3 of 3
KSSQQVLYESRNKNSEA,WASTKES,QQYHRLPLS,1.27,3 of 3
KSSQSVLYESRNKNSVA,WASCMES,QQYHRLPLS,not detected,0 of 3
KSSQSVLYESRNKNSVA,WASTFKS,QQYHRLPLS,4.86,3 of 3
KSSQSVLYESRNKNSVW,WASPLES,QQYHRLPLS,not detected,0 of 3
TSSQSVLYESRNKNSVA,WASTAES,QQYHRLPLH,not detected,0 of 3
KSSQSVLYEHRVKNSVA,WASTQES,QQYHRLPLS,not detected,0 of 3
KTSQSVLIESRNKNSVA,WASTCES,QQYHRLPLS,not detected,0 of 3
KSKQSVLYESRTKNSVA,WASTYES,QQYHRLPLS,5.47,2 of 3
KSSQSVLYESRNKNSVA,WASTDQS,QQYHRLPLS,not detected,0 of 3
KKIQSVLYESRNKNSVA,WASTPES,QQYHRLPLS,3.88,1 of 3
KSSQSVLYESRNKNSVA,WQSHYES,QQYHRLPLS,not detected,0 of 3
KSSQDVLYESRNKNSRA,WASTAES,QQYHRLPLS,not detected,0 of 3
KSSQSVLYESRQKNSVA,WASTVES,QQRHRLPLS,not detected,0 of 3
KMSQSVLYESRNKNSVA,WASTLES,QQYHRLPIS,0.89,3 of 3
KSSQSVLYESRNKNSVA,WASTKES,QWYHRLPLS,3.58,1 of 3
KSSQSVLECSRNKNSVA,WASTMES,QQYHRLPLS,2.67,3 of 3
KSSQSVLYESRNKNSVA,WASTDES,QEYHRLPLS,not detected,0 of 3
KSSQSVLYSSRNKNSVA,WASTYCS,QQYHRLPLS,not detected,0 of 3
KSSQSVRYESRNKNSVA,WASTFES,QQYHRLPLS,4.36,2 of 3
KSSQSVLYESRNKNSVA,IAVTMES,QQYHRLPLS,4.98,1 of 3
KSSQSVLYESNNKSSVA,WASTDES,QQYHRLPLS,not detected,0 of 3
KSSQSVLYESRNKNSVA,MASTMES,QQYPRLPLS,not detected,0 of 3
KSSQSVLYESRNKNSVA,WASTDES,QQYHRLPLS,not detected,0 of 3
KSSQSVLYESRNENSVV,WASTHES,QQYHRLPLS,4.44,1 of 3
KSSQSVLYESRNKNSVA,WASTTES,QQYHRWPYS,4.32,2 of 3
KSSQSVLIESRNKNSVA,WASTHES,QQYHRDPLS,2.74,3 of 3
KSLQSVLYESRNKNSVA,WAKTDES,QQYHRLPLS,not detected,0 of 3
KDSQSVLYESRNKNSVA,WASTQES,QQYHRMPLS,3.44,1 of 3
KSSKSVLYESRNKNSVA,WASTEES,QQYHRLPIS,not detected,0 of 3
KSSQSVLYESRNGNSVA,WASTLES,CQYHRLPLS,not detected,0 of 3
KSSQSVLYESRNKNSVA,AASTVES,QQYHPLPLS,not detected,0 of 3
KSSQSVHYESRNKNSVA,WASTLES,WQYHRLPLS,4.45,2 of 3
KSSWSVLYESRNKNSVA,WASTVES,QQYHRLPLS,3.28,3 of 3
KSSQSELYESRNKNSVA,WASDNES,QQYHRLPLS,not detected,0 of 3
KSSQLVLYESRNKNSVA,WASTKES,QQYHRLPLI,1.12,3 of 3
KSSQSVLDESRNKNSVA,WASTHES,QSYHRLPLS,not detected,0 of 3
KASQSVLYESRNKNSVA,WASTDES,QQYHVLPLS,4.98,1 of 3
KSSQSVLDESRNKESVA,WASTVES,QQYHRLPLS,0.67,3 of 3
RSSQSVLYESRNKNSVA,WASTAES,QCYHRLPLS,4.61,2 of 3
KSSQSVLYESRNKNSVA,WASTEEQ,WQYHRLPLS,3.81,3 of 3
KSSQSVLYESRNKNSVA,WASTSES,QQYHRRPLS,3.81,2 of 3
KSMQSVLYESRNKNSVA,WASTLES,GQYHRLPLS,not detected,0 of 3
KSSQSVLYESRNKNSVA,WASTHES,QQNHHLPLS,not detected,0 of 3
KSWQSVLYESRNKNSVA,WASTIES,QQYHRLVLS,not detected,0 of 3
KSSQSVLYESRNKCDVA,WASTPES,QQYHRLPLS,4.61,2 of 3
KSSQSVLYYSRNKNSVA,WPSTPES,QQYHRLPLS,not detected,0 of 3
KSSQSVLYESRNKNSVA,WASTLES,KQYPRLPLS,1.64,3 of 3
KSSQSVLYESRNKNSVA,WASTTES,QTYHRLPLS,5.20,1 of 3
KSSRNVLYESRNKNSVA,WASTMES,QQYHRLPLS,not detected,0 of 3
KSSQSVLYESRNPNSVA,WASTLES,QQYHRLMLS,3.26,3 of 3

Excerpt, the first 8 entries:

CDR-L1,CDR-L2,CDR-L3,"mean, log10 nM",replicates with signal
KSSQSVLYESRNKNSHA,WASTEES,QQYHRLPLS,3.68,1 of 3
KSSQSVLYESRNKNSVA,WAWTIES,QQYHRAPLS,3.51,1 of 3
KSSQSVLYESRNKNSVD,WASTAES,QQYHPLPLS,3.86,1 of 3
KSSQSVLYESRNKNSVA,WASTLET,QQYHRLPLS,2.80,3 of 3
KSSQSVLYESRNKNSVA,WASTEES,RAYHRLPLS,2.86,1 of 3
DSSQSVLYESRNKNSVA,WASTSES,QQYHRLPLS,not detected,0 of 3
KSSQSVLYMSRNKNSVA,WASTHES,QQYHRNPLS,not detected,0 of 3
KSSQSVLYESRNKNSVA,WESTLES,QQYHRLILS,2.55,3 of 3

Parent in this assay: reference entry 0.65, copy in this library 1.68.
As a blank, each scFv also met three strains without target: over library AAYL50, 18% of these pairings were detected, typically at 4.19 and seldom below 2.99.